Test results as given in patent publication EP4825857A1, “TRICYCLIC FUSED HETEROCYCLIC PDE3/4 DUAL INHIBITOR, AND PREPARATION AND USE THEREFOR” (dated 2026).

Chains of the proteins cited; added tags and fusions are not shown.
UniProt Q12809, whole entry: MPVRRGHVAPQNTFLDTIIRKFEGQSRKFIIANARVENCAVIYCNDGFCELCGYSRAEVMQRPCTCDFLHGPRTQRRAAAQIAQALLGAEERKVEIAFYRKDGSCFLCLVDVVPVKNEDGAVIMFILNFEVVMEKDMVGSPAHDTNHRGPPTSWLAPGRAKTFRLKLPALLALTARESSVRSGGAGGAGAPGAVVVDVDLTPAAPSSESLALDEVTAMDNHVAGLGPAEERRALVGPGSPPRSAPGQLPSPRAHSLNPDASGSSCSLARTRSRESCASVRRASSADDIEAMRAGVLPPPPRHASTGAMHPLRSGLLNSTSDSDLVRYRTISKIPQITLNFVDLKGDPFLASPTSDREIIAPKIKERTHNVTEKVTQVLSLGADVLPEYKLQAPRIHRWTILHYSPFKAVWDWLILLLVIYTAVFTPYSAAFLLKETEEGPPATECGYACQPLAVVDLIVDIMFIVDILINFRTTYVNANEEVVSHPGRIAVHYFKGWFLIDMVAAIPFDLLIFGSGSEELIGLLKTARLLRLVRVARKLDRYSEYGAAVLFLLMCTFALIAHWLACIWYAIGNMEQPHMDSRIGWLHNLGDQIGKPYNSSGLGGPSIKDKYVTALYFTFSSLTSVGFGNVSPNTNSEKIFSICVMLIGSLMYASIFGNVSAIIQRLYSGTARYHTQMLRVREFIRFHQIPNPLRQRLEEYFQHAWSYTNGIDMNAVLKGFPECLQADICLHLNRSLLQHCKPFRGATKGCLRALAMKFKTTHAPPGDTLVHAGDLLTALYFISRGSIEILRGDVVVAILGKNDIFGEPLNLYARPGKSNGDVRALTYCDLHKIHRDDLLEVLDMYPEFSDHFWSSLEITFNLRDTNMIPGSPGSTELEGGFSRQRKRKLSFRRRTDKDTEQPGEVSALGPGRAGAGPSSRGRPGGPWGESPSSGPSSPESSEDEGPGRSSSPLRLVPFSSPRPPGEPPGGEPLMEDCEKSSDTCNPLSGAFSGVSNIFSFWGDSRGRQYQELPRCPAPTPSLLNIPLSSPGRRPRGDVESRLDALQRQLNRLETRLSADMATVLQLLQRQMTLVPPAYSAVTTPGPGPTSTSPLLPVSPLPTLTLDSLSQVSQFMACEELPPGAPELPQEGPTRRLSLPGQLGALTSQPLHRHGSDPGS

Key:
[1] = Liver microsomal incubation assay (metabolic stability); conditions: for Metabolic Type (Fast/Moderate/ Slow) / CLint / T1/2 / T120 - Remaining (% of 0 min) / T1/2 (min), value in parentheses / CLint (mL/min/kg), value in parentheses: human liver microsomes; for CLint / T1/2 / T120 - Remaining (% of 0 min) / T1/2 (min), value in parentheses / CLint (mL/min/kg), value in parentheses: 0.5 µM; for T120 - Remaining (% of 0 min) / T120 NC - Remaining (% of 0 min- NC): 120 min; for T120 - Remaining (% of 0 min): NADPH and UDPGA; for T1/2 (min), value in parentheses: figure printed in parentheses behind the bound <30; for CLint (mL/min/kg), value in parentheses: figure printed in parentheses behind the bound >57.9; for T120 NC - Remaining (% of 0 min- NC): negative control without coenzyme (test compound + microsomes + buffer)
Protocol: Test Objective: To evaluate the in vitro metabolic stability of RPL-554, Compound 1-2, Compound 10-2, Compound 67, and Compound 69.
Test System: Human liver microsomes.
Incubation conditions: test compound incubation time, 0, 30, 60, and 120 min; test compound final concentration, 0.5 µM; microsomal protein concentration, 0.5 mg/mL; NADPH and UDPGA concentrations, 1.0 mM; temperature, 37.0 °C.
A mixed working solution of testosterone and 7-hydroxycoumarin was prepared.
A mixed solution of NADPH and UDPGA was prepared and prewarmed at 37 °C in a shaking water bath before use.
Liver microsomes were thawed and diluted with a buffer.
The prepared test compound solution and liver microsome suspension were added to each well of a incubation plate.
The experiment was divided into three groups, and the corresponding components were added to each group. Test group=test compound + microsomes + coenzyme. Test compound negative control group (NC)=test compound + microsomes + buffer. Positive control group=phase I and phase II substrates + microsomes + coenzyme.
All samples were incubated at 37 °C. At each designated termination time point, each reaction was stopped by adding pre-chilled methanol containing an internal standard, and the time was recorded.
After thorough mixing, all samples were centrifuged at 4,000 rpm for 10 min. The supernatants were collected and analyzed by LC-MS/MS.

[2] = test system: Caco-2 cells; test: Caco 2 cell permeability assay; conditions: for Recovery (%): Caco-2, 1 µM; for Recovery (%) / Papp/ 10^-6 cm/s: 2 h; for Papp/ 10^-6 cm/s: Caco-2, A-B, 1 µM, 37.0 °C; for Papp (A-B): Caco-2, test concentration of 1 µM
Protocol: Test Objective: To evaluate the Caco2 cell permeability to RPL-554, Compound 1-2, Compound 10-2, Compound 67, and Compound 69.
Cell Line: Human colorectal adenocarcinoma cell line.
Incubation conditions: Test system, Caco-2 cells; incubation time, 2 h; test compound final concentration, 1 µM; temperature, 37.0 °C.
Quality control before the permeability assay: Before the assay, the transepithelial electrical resistance of the cells was measured using a resistance meter, and the apparent transepithelial resistance of the cell monolayer was calculated.
Permeability assay: Before the assay, the culture medium was aspirated from the culture plate, and the cells were washed three times with HBSS buffer prewarmed at 37°C (Apical side and Basal side); After the buffer in the plate was aspirated, 800 µL of HBSS buffer prewarmed at 37 °C was added to the B side, and 500 µL of propranolol solution (PC), nadolol solution (SC), or a test compound solution prewarmed at 37 °C was added to A side. A 100 µL solution was then taken from the A side as the 0 h apical sample and stored at -20 °C until analysis. The culture plate was incubated at 37°C for 120 min. At the end of incubation, a 100 µL solution was collected from each sample at both A side and B side as the 120 min sample and stored at -20 °C until analysis. All samples were mixed with internal-standard-containing methanol at a ratio of 1:4 and analyzed by LC-MS/MS. After incubation, 100 µL was taken from the basal side and transferred to a black 96-well plate. An LFY standard curve was prepared, and fluorescence was measured using a fluorescence microplate reader at an excitation wavelength of 485 nm.
Note: The A side contained 10 µM Lucifer Yellow. All test compound buffers contained 0.1% BSA.

[3] = target: hERG channel (Homo sapiens, UniProt Q12809); test: hERG whole-cell patch-clamp (HEK293 stably expressing the hERG channel); conditions: hERG tail current
Protocol: A human embryonic kidney cell line (HEK293) stably expressing the hERG channel was cultured in DMEM medium in a cell culture incubator at 37°C under 5% CO2. The culture medium was supplemented with 10% fetal bovine serum (FBS) and G418 at a final concentration of 400 µg/mL. Prior to the assay, cells were digested with 0.25% trypsin when they reached approximately 75% confluence, as confirmed under an inverted microscope, to obtain a single-cell suspension. The cell suspension was pipetted dropwise onto cell coverslips, and the coverslips were then incubated in a cell culture incubator. After cell attachment, the cells on the coverslips were used for patch-clamp recording. Terfenadine was used as the positive control.
Voltage-clamp parameters were set using Clampex 10.6 software. In the whole-cell configuration, the cells were held at -80 mV for 125 ms and then subjected to a depolarizing voltage step to +50 mV for 5000 ms to activate the hERG channels. The membrane potential was subsequently repolarized to -50 mV for 5000 ms to elicit the characteristic hERG tail current, which was recorded. The tail current was used for data acquisition, measurement, and analysis.

[4] = test system: Salmonella typhimurium TA97a, TA98, TA100, TA102, and TA1535; test: Mutagenicity and bacterial toxicity in Salmonella typhimurium (reverse mutation, dose-range finding); conditions: 5000 to 50 µg/plate; for mutagenic activity: in the absence or presence of metabolic activation (S9); for bacterial toxicity: in the presence and absence of metabolic activation (S9)
Protocol: The bacterial toxicity and potential mutagenicity of Compound 1-2, Compound 10-2, Compound 12-1, and Compound 19 to Salmonella typhimurium were evaluated separately to determine the optimal dose ranges for subsequent mutagenesis assays in Salmonella typhimurium.
The assay was performed using five histidine auxotrophic Salmonella typhimurium strains, namely TA97a, TA98, TA100, TA102, and TA1535, supplied by JOINN Laboratories (Suzhou) Co., Ltd. Each bacterial strain system was treated with the test compound at doses of 5000, 1500, 500, 150, and 50 µg/plate in the absence or presence of metabolic activation. A vehicle control group, DMSO, was also included. For each test point, duplicate plates were set both in the presence of metabolic activation (+S9, with S9 mix) and in the absence of metabolic activation (-S9, without S9 mix). Strains TA97a, TA98, TA100, and TA1535 were incubated at 37°C for approximately 48 h, and strain TA102 was incubated at 37°C for approximately 72 h. Revertant colonies were counted for each plate, and the background lawn was examined microscopically. […] For strains TA98, TA102, and TA1535, toxicity could not be evaluated with 5000 µg/plate of the test compound because precipitation was observed on the plates. No obvious bacterial toxicity was observed under the other test conditions. […] For strains TA97a, TA98, TA100, TA102, and TA1535 with 5000 µg/plate of the test compound, for strains TA97a, TA98, TA102, and TA1535 with 1500 µg/plate of the test compound, and for strain TA102 with 500 µg/plate of the test compound, colonies could not be counted due to precipitation on the plates, and toxicity could not be evaluated. No obvious bacterial toxicity was observed under the other test conditions. […] For strains TA97a, TA98, and TA102 both in the presence and absence of metabolic activation, and for strain TA100 in the presence of metabolic activation, colonies could not be counted due to precipitation, and toxicity could not be evaluated. No obvious bacterial toxicity was observed under the other test conditions. […] No obvious bacterial toxicity was observed under the other test conditions.

## COc1cc2c(cc1OC)-c1cc(N(c3c(C)cc(C)cc3C)C(C)CNC(=O)c3ncc[nH]3)nc(=O)n1CC2 (single isomer, unassigned) [Compound 10-2]
[1]
  Metabolic Type (Fast/Moderate/ Slow): Fast
  CLint: > 57.9 mL/min/kg
  T1/2: < 30 min
  T120 - Remaining (% of 0 min): 4.53 % of 0 min
  T1/2 (min), value in parentheses: 11.8 min
  CLint (mL/min/kg), value in parentheses: 147 mL/min/kg
  T120 NC - Remaining (% of 0 min- NC): 79.3 % of 0 min- NC
[2]
  Recovery (%): 87.7%
  Papp/ 10^-6 cm/s: 0.0477 10^-6 cm/s
  Papp (A-B): 0.0477 ×10⁻⁶ cm/s
[3]
  Inhibition rate (%) 1 µM: 23.0±4.9%
  Inhibition rate (%) 10 µM: 62.5±15.4%
[4]
  mutagenic activity: no mutagenic activity
  bacterial toxicity: bacterial toxicity was observed in strain TA100 with 1500 µg/plate

## COc1cc2c(cc1OC)-c1cc(N(c3c(C)cc(C)cc3C)C(C)CNC(=O)c3[nH]nnc3C)nc(=O)n1CC2 (single isomer, unassigned) [Compound 12-1]
[3]
  Inhibition rate (%) 1 µM: 11.5±4.6%
  Inhibition rate (%) 10 µM: 27.9±5.6%
[4]
  mutagenic activity: no mutagenic activity
  bacterial toxicity: No obvious bacterial toxicity was observed under the other test conditions

## COc1cc2c(cc1OC)-c1cc(N(c3c(C)cc(C)cc3C)C(C)CNC(=O)c3cccc(N)n3)nc(=O)n1CC2 (stereo not drawn)
[1]
  Metabolic Type (Fast/Moderate/ Slow): Fast
  CLint: > 57.9 mL/min/kg
  T1/2: < 30 min
  T120 - Remaining (% of 0 min): 8.76 % of 0 min
  T1/2 (min), value in parentheses: 9.7 min
  CLint (mL/min/kg), value in parentheses: 179 mL/min/kg
  T120 NC - Remaining (% of 0 min- NC): 56.6 % of 0 min- NC
[2]
  Recovery (%): 75.9%
  Papp/ 10^-6 cm/s: 0.422 10^-6 cm/s
  Papp (A-B): 0.422 ×10⁻⁶ cm/s

## COc1cc2c(cc1OC)-c1cc(N(c3c(C)cc(C)cc3C)C(C)CNC(N)=O)nc(=O)n1CC2 (single isomer, unassigned) [Compound 1-2]
[1]
  Metabolic Type (Fast/Moderate/ Slow): Moderate
  CLint: 27.1 mL/min/kg
  T1/2: 64.2 min
  T120 - Remaining (% of 0 min): 27.5 % of 0 min
  T120 NC - Remaining (% of 0 min- NC): 86.1 % of 0 min- NC
[2]
  Recovery (%): 97.0%
  Papp/ 10^-6 cm/s: 0.412 10^-6 cm/s
  Papp (A-B): 0.412 ×10⁻⁶ cm/s
[3]
  Inhibition rate (%) 1 µM: 6.9±1.0%
  Inhibition rate (%) 10 µM: 35.4±2.0%
[4]
  mutagenic activity: no mutagenic activity
  bacterial toxicity: bacterial toxicity was observed in strains TA97a and TA100 with 5000 µg/plate

## COc1cc2c(cc1OC)-c1cc(N(c3c(C)cc(C)cc3C)C(C)CNC(=O)c3ccccn3)nc(=O)n1CC2 (stereo not drawn)
[3]
  Inhibition rate (%) 1 µM: 7.7±3.6%
  Inhibition rate (%) 10 µM: 50.5±2.4%
[4]
  mutagenic activity: no mutagenic activity
  bacterial toxicity: No obvious bacterial toxicity was observed under the other test conditions

## COc1cc2c(cc1OC)-c1cc(N(c3c(C)cc(C)cc3C)C(C)CNC(=O)c3cc(N)ccn3)nc(=O)n1CC2 (stereo not drawn)
[1]
  Metabolic Type (Fast/Moderate/ Slow): Fast
  CLint: > 57.9 mL/min/kg
  T1/2: < 30 min
  T120 - Remaining (% of 0 min): 10.9 % of 0 min
  T1/2 (min), value in parentheses: 12.3 min
  CLint (mL/min/kg), value in parentheses: 142 mL/min/kg
  T120 NC - Remaining (% of 0 min- NC): 91.0 % of 0 min- NC
[2]
  Recovery (%): 117%
  Papp/ 10^-6 cm/s: 0.594 10^-6 cm/s
  Papp (A-B): 0.594 ×10⁻⁶ cm/s

## COc1cc2c(cc1OC)-c1cc(=Nc3c(C)cc(C)cc3C)n(CCNC(N)=O)c(=O)n1CC2
[1]
  Metabolic Type (Fast/Moderate/ Slow): Fast
  CLint: > 57.9 mL/min/kg
  T1/2: < 30 min
  T120 - Remaining (% of 0 min): 5.10 % of 0 min
  T1/2 (min), value in parentheses: 15.1 min
  CLint (mL/min/kg), value in parentheses: 115 mL/min/kg
  T120 NC - Remaining (% of 0 min- NC): 86.3 % of 0 min- NC
[2]
  Recovery (%): 116%
  Papp/ 10^-6 cm/s: 0.643 10^-6 cm/s
  Papp (A-B): 0.643 ×10⁻⁶ cm/s
[3]
  Inhibition rate (%) 1 µM: 17.2±6.5%
  Inhibition rate (%) 10 µM: 67.2±3.4%
